# Earlier results, collected in patent publication US11883631B2 (priority 2015, dated 2024).
# Conditions: 35 adults; between start of propofol infusion and incision; remifentanil by target controlled infusion
smiles,measurement,value
CC(C)c1cccc(C(C)C)c1O [propofol],subjects in whom hypotension was treated,7 subjects
